Patent publication US20230181677A1, “POLYPEPTIDE FOR PROMOTING BONE REGENERATION OR BONE FORMATION AND ITS USE” (SEWON BIOTECHNOLOGY INC., priority 2016, published 2023)

Key:
Format in all cases: in vivo
[1] = test system: rat calvarial defect model; assay: bone regeneration in rat calvarial defect model (ACS graft, micro-CT, qRT-PCR); details: 3 weeks and 5 weeks, versus control
Method: First, a graft material having components corresponding to the respective conditions in Table 3 was used on laboratory rats as an animal model was. 8- week-old male rats were used to avoid errors due to hormonal changes. The breeding and management of the experimental animals were performed according to the criteria of the laboratory animal center of Seoul National University. […] At 3 and 5 weeks after the graft, newly formed bone tissues were examined. Bone-regeneration peptides and BMP-2 were used diluted in saline solution and the same volume of saline solution was used as a control. The doses used were: ACS (absorbable collagen sponge) (Kevin et al., Adv Drug Deliv Rev. 2012; 64: 1277-1291): 8 mm diameter; Peptide according to the invention: 100 μg/ACS disc; rhBMP-2: 2 μg/ACS disc […]
The micro-CT method was used for the analysis and the skulls were removed after sacrificing the rats at 3 and 5 weeks after surgery. […] Quantitative analysis of the newly formed regenerated bone was performed by measuring the volume of calcified tissue within the injured area to assess the degree of bone regeneration.
This is the quantitative real-time PCR results for each gene indicated in the figure, which were performed on cDNA synthesized from isolated RNA extracted from newly formed tissues at 3 weeks and 5 weeks. […]

femur muscle of mouse = assay: ectopic ossification analysis, ACS graft in femur muscle, micro-CT; details: BMP-2 2 μg left femur, peptide 600 μg right femur; n=10; eight weeks after operation
Method: First, the present peptide or BMP-2 was adsorbed on ACS to prepare a graft material. ACS used was a disc of 5 mm in diameter and the present peptide and BMP-2 were used dissolved in saline solution. BMP-2 was used at the concentration of 2 μg and the present peptide was used at the concentration of 600 μg, which is 300 times that of BMP-2.
For animal experiments, the graft material containing BMP-2 was inserted into an incision made at the left femur muscle of a 6-week-old male mouse, and the graft containing the present peptide was inserted into an incision made at the right femur, which were performed after anesthetizing the mice followed by the sequential incision of the epidermis and fascia of the left and right femur. There was no significant difference in body weight before and after surgery and right before the sacrifice. Further there was no significant difference in the consumption of feed. Eight weeks after the operation, animals were euthanized and micro-CT analysis was performed to observe calcification (ectopic ossification) in the muscle. All 10 animals were used.

[2] = test system: immunocompromised mice (NIH-bg-nu/nu-xid), xenograft bone graft model; assay: xenograft bone regeneration experiment using mouse (Bio-Oss + hDPSC graft on the back); details: peptide 10 μg, BMP-2 2 μg
Method: Using the graft materials having the components as in Table 2, each of the following four groups was grafted on the back of the immunodeficient mice as described below, and newly formed hard tissues were analyzed over 3 weeks and 6 weeks after the graft. The doses used were as follows: Geistlich Bio-Oss: 100 mg; hDPSC (human dental pulp stem cell): 5×10^6 cells; Peptide according to the invention: 10 μg; and BMP-2 (BD Science): 2 μg (Kevin et al., Adv Drug Deliv Rev. 2012; 64: 1277-1291).
For the animal experiments, 6-week-old immunocompromised mice (NIH-bg-nu/nu-xid, Harlan Sprague Dawley, Indianapolis, Ind., USA) were anesthetized and each of the composition as above with 0.5% fibrin gel was inserted in the incision made on the back of the mouse and the incisions were re-sutured. Peptides and BMP-2 were diluted in saline solution and the same volume of saline solution was used as a control. […]
The mice were sacrificed at 3 and 6 weeks after each composition as described above was administered, and the treated sites were separated and fixed in a 4% para-formaldehyde solution. […] Quantitative analysis of the newly formed hard tissues using H&E staining was performed as previously described from (Lee et al., Biomaterials 2011; 32: 9696-9706).

Substance: BMP-2: bone inducing factor BMP-2 (BD Science), positive control
- osteogenesis-related gene expression in newly formed tissue (quantitative real-time PCR) [1]: Higher levels of osteogenesis-related gene expression
- ectopic ossification (calcification in the muscle), micro-CT (femur muscle of mouse): distinct ectopic ossification in all the mice treated
- amount of hard tissue formed (H&E staining) ([2]; 3 weeks after graft): increased compared to the negative control group
- hard tissue development (H&E staining) ([2]; 6 weeks after graft): significantly higher than that of the negative control group
